The target in this experiment is Thymidylate synthase (Escherichia coli (strain K12), UniProt P0A884). Conditions: IC50 (nM).

Amino acid sequences for entries named in this document (tags omitted). A change or cut given only in a name is not applied to a line headed by its entry.
UniProt P0A884: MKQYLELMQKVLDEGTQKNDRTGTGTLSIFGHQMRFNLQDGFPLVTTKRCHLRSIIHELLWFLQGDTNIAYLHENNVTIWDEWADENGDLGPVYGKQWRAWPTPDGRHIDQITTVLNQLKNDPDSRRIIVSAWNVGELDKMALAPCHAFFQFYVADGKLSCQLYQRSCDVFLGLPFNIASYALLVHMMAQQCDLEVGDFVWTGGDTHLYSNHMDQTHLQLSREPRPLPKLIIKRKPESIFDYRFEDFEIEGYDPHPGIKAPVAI

Drawing on BindingDB's records for doi:10.1021/jm058234m (Duquesne University, 2005), this text covers IC50 for one compound.

As usually defined, the IC50 is the concentration that gives 50% inhibition. Lower therefore signals greater potency. Consider `Cc1nc2ccc(CN(C)c3ccc(C(=O)N[C@@H](CCC(=O)O)C(=O)O)s3)cc2c(=O)[nH]1` [(2S)-2-[(5-{methyl[(2-methyl-4-oxo-1,4-dihydroquinazolin-6-yl)methyl]amino}thiophen-2-yl)formamido]pentanedioic acid], for which the IC50 amounted to 5700 nM.
